Reference: US6939893B2, “Method of reducing toxicity of anticancer agents” (priority 2002, dated 2005)

Test system: normal nude mice
Settings: parameters other than WBC; irinotecan 200 mg/kg, MSC 0.2 mg/mouse

For `CCc1c2c(nc3ccc(OC(=O)N4CCC(N5CCCCC5)CC4)cc13)-c1cc3c(c(=O)n1C2)COC(=O)[C@]3(O)CC` [Irinotecan, irinotecan], the “effect on the other hematologic parameters” value was “no significant effect”.
